This note sets out measurements from patent US20160046682A1.

Amino acid sequences for entries named in this document (tags omitted). Residues count along the entry.
UniProt P25101, 21-427: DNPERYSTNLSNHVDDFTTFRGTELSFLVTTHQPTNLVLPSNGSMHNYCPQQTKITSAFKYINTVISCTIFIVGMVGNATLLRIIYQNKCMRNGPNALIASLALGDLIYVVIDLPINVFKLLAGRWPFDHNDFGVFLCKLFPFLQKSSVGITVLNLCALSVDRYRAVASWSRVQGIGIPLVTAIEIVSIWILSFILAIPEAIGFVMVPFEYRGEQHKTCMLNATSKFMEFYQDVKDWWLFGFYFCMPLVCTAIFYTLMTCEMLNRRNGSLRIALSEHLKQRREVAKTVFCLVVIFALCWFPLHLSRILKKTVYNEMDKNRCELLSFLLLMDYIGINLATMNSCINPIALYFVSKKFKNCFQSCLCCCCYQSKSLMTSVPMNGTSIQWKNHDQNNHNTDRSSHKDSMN

This assay concerns the target endothelin receptor A (human) (UniProt P25101). The assay can be described thus: cell-based or functional assay.

In the case of “endothelin-1 (from UniProt P05305 53-73) (peptide)”, the contraction of collagen lattices with human uterine smooth muscle cells (relative lattice area, 100 nM ET-1) (% of lattices not treated with ET-1) worked out at 78.
